Measured values from ChEMBL document CHEMBL6092211, “Discovery and evaluation of novel SHIP-1 inhibitors” (Bioorg Med Chem, 2024).
pIC50: −log10 of the molar value.

Legend:
[1] = target: T1, Phosphatidylinositol 3,4,5-trisphosphate 5-phosphatase 2 (Homo sapiens, UniProt O15357); assay: Inhibition of human SHIP-2 (420 to 732 residues) catalytic domain expressed in Rosetta DE3 BL21 cells using -(1,2-dioctanoylphosphatidyflinosito1-3,4,5-trisphosphate as substrate by malachite green based spectramax microplate reader analysis
T1 sequence (O15357 whole entry): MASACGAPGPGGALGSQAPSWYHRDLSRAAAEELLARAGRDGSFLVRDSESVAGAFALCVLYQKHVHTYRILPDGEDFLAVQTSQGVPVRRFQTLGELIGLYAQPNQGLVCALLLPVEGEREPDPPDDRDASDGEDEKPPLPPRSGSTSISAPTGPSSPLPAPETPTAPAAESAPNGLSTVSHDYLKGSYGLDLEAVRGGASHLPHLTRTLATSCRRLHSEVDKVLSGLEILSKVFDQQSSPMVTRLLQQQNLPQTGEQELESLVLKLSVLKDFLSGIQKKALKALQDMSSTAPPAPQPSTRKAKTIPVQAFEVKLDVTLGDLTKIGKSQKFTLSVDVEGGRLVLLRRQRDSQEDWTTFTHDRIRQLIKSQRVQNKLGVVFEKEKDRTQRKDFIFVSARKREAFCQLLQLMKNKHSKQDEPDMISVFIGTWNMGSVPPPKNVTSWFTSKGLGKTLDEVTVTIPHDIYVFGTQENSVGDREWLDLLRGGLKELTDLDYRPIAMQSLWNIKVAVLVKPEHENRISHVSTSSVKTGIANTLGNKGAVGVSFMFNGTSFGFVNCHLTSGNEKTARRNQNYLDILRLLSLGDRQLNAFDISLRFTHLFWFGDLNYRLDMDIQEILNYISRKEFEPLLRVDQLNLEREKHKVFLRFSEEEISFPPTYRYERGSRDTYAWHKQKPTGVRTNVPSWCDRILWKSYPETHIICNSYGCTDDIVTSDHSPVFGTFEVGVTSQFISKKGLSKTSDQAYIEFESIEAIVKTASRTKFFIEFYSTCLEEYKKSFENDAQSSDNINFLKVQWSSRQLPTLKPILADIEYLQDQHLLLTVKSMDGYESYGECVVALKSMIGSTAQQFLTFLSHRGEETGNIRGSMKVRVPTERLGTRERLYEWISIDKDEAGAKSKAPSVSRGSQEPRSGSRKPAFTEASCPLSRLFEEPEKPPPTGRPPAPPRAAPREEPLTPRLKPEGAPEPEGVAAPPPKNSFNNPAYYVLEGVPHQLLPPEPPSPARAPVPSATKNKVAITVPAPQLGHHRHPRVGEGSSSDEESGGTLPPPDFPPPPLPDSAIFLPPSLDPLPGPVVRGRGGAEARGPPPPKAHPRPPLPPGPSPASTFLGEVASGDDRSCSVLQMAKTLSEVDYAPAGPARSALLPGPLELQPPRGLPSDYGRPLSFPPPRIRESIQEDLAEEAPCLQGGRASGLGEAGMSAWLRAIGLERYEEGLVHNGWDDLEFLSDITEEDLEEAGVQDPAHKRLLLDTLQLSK

[2] = target: T1, Phosphatidylinositol 3,4,5-trisphosphate 5-phosphatase 2; assay: Inhibition of SHIP-2 (unknown origin) using PtdIns(3,4,5)P3 as substrate by malachite green solution based fluorescence polarization analysis

Compound | pIC50 [1] | pIC50 [2]
Cc1oc(-c2ccccc2Cl)nc1Cn1cccc1C1=NC(c2ccccc2)CO1 (stereo not drawn) | 3.93 | 
CC(C)CCC[C@@H](C)[C@H]1CC[C@H]2[C@@H]3CC[C@H]4C[C@H](N)CC[C@]4(C)[C@H]3CC[C@]12C |  | < 3.00
CC(=O)C1=C(C)Nc2sc(C(=O)c3ccc(Cl)c(Cl)c3)c(N)c2C1c1cccnc1 (stereo not drawn) | < 3.70 | 
